Laboratory results: US20250276983A1, “COMPOUNDS AND METHODS FOR MODULATING HER2” (IAMBIC THERAPEUTICS, INC., priority 2022, published 2025)

Columns and labels:
Assay type in all cases: cell-based
[1] = system: BaF3_EGFRWT cells; assay: Cell growth inhibition assay, BaF3_EGFRWT; conditions: 72 h, read-out: EGFR WT IC50 (nM), cell growth inhibition
[2] = system: BaF3_HER2WT cells; assay: Cell growth inhibition assay, BaF3_HER2WT; conditions: 72 h, read-out: HER2 WT IC50 (nM), cell growth inhibition
[3] = system: BaF3_HER2YVMA cells; assay: Cell growth inhibition assay, BaF3_HER2YVMA; conditions: 72 h, 3 days treatment, CellTiterGlo 2.0, read-out: HER2-YVMA IC50 (nM), cell growth inhibition

| SMILES | IC50 [1] [nM] | IC50 [2] [nM] | IC50 [3] [nM] |
| --- | --- | --- | --- |
| Cc1cc(Nc2ncnn3ccc(C4CCN(C(=O)/C=C/CN5CCC(O)C5)CC4)c23)ccc1Oc1ccc2c(c1)ncn2C (stereo not shown) [Example 130, (E)-4-(3-hydroxypyrrolidin-1-yl)-1-(4-(4-((3-methyl-4-((1-methyl-1H-benzo[d]imidazol-5-yl)oxy)phenyl)amino)pyrrolo[2,1-f][1,2,4]-triazin-5-yl)piperidin-1-yl)but-2-en-1-one] | 1500 to 5000 | – | – |
| Cc1cc(Nc2ncnn3ccc(C4CCN(C(=O)/C=C/CN5CCOCC5)CC4)c23)ccc1Oc1ccc2c(c1)ncn2C [Example 128, (E)-1-(4-(4-((3-methyl-4-((1-methyl-1H-benzo[d]imidazol-5-yl)oxy)phenyl)amino)-pyrrolo[2,1-f][1,2,4]triazin-5-yl)piperidin-1-yl)-4-morpholinobut-2-en-1-one] | 1500 to 5000 | < 200 | < 200 |
| Cc1cc(Nc2ncnn3ccc(C4CCN(C(=O)/C=C/CN5CCN(C)CC5)CC4)c23)ccc1Oc1ccc2c(c1)ncn2C [Example 131, (E)-1-(4-(4-((3-methyl-4-((1-methyl-1H-benzo[d]imidazol-5-yl)oxy)phenyl)-amino)pyrrolo[2,1-f][1,2,4]triazin-5-yl)piperidin-1-yl)-4-(4-methylpiperazin-1-yl)but-2-en-1-one] | 1500 to 5000 | – | – |
| COC1CN(C/C=C/C(=O)N2CCC(c3ccn4ncnc(Nc5ccc(Oc6ccc7c(c6)ncn7C)c(C)c5)c34)CC2)C1 [Example 132, (E)-4-(3-methoxyazetidin-1-yl)-1-(4-(4-((3-methyl-4-((1-methyl-1H-benzo[d]imi-dazol-5-yl)oxy)phenyl)amino)pyrrolo[2,1-f][1,2,4]triazin-5-yl)piperidin-1-yl)but-2-en-1-one] | 1500 to 5000 | – | – |
| COC1CCN(C/C=C/C(=O)N2CCC(c3ccn4ncnc(Nc5ccc(Oc6ccc7c(c6)ncn7C)c(C)c5)c34)CC2)CC1 [Example 115, (E)-4-(4-methoxypiperidin-1-yl)-1-(4-(4-((3-methyl-4-((1-methyl-1H-benzo[d]imidazol-5-yl)oxy)phenyl)amino)pyrrolo[2,1-f][1,2,4]triazin-5-yl)piperidin-1-yl)but-2-en-1-one] | 1500 to 5000 | – | – |
